pEC50, pKi: −log10 of the molar value.
Tests used:
[1] = biological target: Kappa-type opioid receptor (Cavia porcellus, UniProt P41144); assay type: cell membranes, Brain, Membrane
[2] = biological target: Delta-type opioid receptor (Homo sapiens, UniProt P41143); assay: biochemical
Mu-type opioid receptor = Mu-type opioid receptor (Homo sapiens, UniProt P35372); assay: biochemical

Protein sequences, listed by entry. Tags and fused reporters are not part of them. Lines headed by an entry give the natural chain unless they say otherwise; changes in a name come on top.
UniProt P41144: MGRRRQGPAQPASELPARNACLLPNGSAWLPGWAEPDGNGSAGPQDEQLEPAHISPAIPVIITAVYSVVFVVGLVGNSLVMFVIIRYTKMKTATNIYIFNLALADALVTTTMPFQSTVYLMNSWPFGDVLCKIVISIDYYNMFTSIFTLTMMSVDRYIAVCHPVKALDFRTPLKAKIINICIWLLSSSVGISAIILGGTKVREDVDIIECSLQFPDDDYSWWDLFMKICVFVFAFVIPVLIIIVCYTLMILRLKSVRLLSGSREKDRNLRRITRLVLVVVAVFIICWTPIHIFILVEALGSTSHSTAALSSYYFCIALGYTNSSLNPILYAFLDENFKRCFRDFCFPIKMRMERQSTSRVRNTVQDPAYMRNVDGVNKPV
UniProt P41143, whole entry: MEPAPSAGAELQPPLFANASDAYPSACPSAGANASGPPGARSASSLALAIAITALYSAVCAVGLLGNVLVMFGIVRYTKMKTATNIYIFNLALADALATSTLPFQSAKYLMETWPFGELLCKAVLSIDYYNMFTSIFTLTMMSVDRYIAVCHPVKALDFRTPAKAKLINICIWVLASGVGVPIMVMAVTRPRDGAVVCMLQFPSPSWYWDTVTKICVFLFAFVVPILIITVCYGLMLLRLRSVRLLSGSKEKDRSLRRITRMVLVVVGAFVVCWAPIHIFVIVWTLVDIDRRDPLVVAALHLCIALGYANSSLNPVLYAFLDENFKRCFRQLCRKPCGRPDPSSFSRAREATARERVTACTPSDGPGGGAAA
UniProt P35372, whole entry: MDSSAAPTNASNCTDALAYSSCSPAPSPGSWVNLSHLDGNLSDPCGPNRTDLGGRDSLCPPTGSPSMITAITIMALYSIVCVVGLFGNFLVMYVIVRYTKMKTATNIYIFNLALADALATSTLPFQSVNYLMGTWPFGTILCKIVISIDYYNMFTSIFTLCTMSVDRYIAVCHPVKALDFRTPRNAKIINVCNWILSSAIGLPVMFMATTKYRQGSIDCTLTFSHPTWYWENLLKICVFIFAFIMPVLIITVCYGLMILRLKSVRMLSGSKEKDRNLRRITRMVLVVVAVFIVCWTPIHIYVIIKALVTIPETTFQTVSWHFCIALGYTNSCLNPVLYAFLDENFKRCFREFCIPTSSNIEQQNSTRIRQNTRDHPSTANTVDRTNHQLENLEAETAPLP

SMILES | pKi [1] | pEC50 [2] | pEC50 (Mu-type opioid receptor)
O=C1CC[C@@]2(OCCCc3ccccc3)[C@H]3Cc4ccc(O)c5c4[C@@]2(CCN3CC2CC2)[C@H]1O5 | 9.39 |  | 
Cl.Cl.O=C(O)CN[C@H]1CC[C@@]2(OCCCc3ccccc3)[C@H]3Cc4ccc(O)c5c4[C@@]2(CCN3CC2CC2)[C@H]1O5 |  | 9.16 | 9.16

— ChEMBL document CHEMBL1671784 (J Med Chem, 2011)
